## scFv variants of Ab-14 (light chain) against a SARS-CoV-2 spike peptide

Antigen: PDVDLGDISGINAS, a 14-residue peptide of the SARS-CoV-2 spike HR2 region.

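Variants in AAYL50 differ from the parent at up to three CDR positions; double and triple changes were sampled at random. The scFvs were displayed on barcoded MATa yeast, the peptide on MATalpha yeast. The frequency of each diploid, read from paired DNA barcodes, reflects how well the two displayed proteins bind. Read counts were normalised to the haploid input and turned into Kd by a linear fit to BCL2-family pairs of known affinity, for each replicate. Mating was done three times.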

Parent scFv Ab-14: VH joined to VL by the linker GGGGSGGGGSGGGGS. Changes lie in the light chain CDRs alone.
VH: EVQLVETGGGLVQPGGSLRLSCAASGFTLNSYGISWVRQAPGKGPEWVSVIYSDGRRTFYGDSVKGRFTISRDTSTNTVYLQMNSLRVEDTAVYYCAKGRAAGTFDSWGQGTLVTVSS
VL: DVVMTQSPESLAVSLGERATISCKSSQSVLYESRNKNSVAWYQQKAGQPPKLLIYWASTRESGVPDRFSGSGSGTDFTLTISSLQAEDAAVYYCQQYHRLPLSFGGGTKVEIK

Positions count from residue 1 of the parent VL; S38C puts C in place of S. Affinities are written as log10 Kd with Kd in nM; a lower number is a better binder. A mean of the replicates is given; it leaves out those without a signal. Where no diploid with the target was found in that replicate, the entry reads "n.d.": below detection, most likely a poor binder, though not proof of it. Three control strains display no target. For library AAYL50, 18% of the pairings with them gave a signal, with a median of 4.19 and one signal in twenty below 2.99, so weak values seen in few replicates may be background. For each scFv, signals with the empty controls are counted beside the result, with their mean in brackets. Parent in this assay: reference entry 0.65, copy in this library 1.68.

changes,"log10 Kd, replicates",mean log10 Kd (nM),signal with controls
S38C/R99W/S103W,2.03 / n.d. / 2.56,2.29,0/9
S25A/L30Q/Y97E,2.14 / 2.06 / 1.70,1.96,3/9 (4.24)
N37P/Y97C,n.d. / n.d. / n.d.,n.d.,1/9 (3.10)
L30P/K36I/S38Q,1.64 / 1.98 / 2.51,2.04,0/9
N37S/A40G/H98N,5.18 / n.d. / 4.68,4.93,3/9 (3.59)
S33R,1.79 / 1.86 / 1.80,1.82,3/9 (4.12)
S28N/N35M,0.73 / 0.72 / 0.96,0.80,0/9
Q27Y/E32W/E61G,n.d. / n.d. / n.d.,n.d.,0/9
V29L/Y31M/V39W,2.53 / n.d. / n.d.,2.53,0/9
S25D/T59H/Q95R,1.46 / 1.71 / 1.66,1.61,4/9 (4.20)
S25L/K36Q/R60H,0.54 / 0.62 / 0.47,0.54,0/9
K36Q/T59D/E61P,1.41 / 1.65 / 1.66,1.57,3/9 (3.76)
S28C/N35Y/A57H,n.d. / n.d. / n.d.,n.d.,0/9
A40C/Q95L,4.26 / 3.60 / 3.06,3.64,1/9 (4.48)
S33L/T59G/E61G,n.d. / n.d. / n.d.,n.d.,2/9 (3.76)
S26K/R34Y/R99N,1.14 / 1.30 / 1.25,1.23,4/9 (4.18)
K24F/Y31N/E61Y,n.d. / n.d. / n.d.,n.d.,1/9 (4.17)
S58G/S62C/Q96S,2.81 / 3.08 / n.d.,2.95,1/9 (4.56)
T59C,1.03 / 1.15 / 1.21,1.13,2/9 (4.62)
S26R/S28D/Q95T,n.d. / n.d. / 3.42,3.42,3/9 (4.36)
S28D/R99P/L100D,n.d. / 4.33 / n.d.,4.33,3/9 (4.16)
R60F/Q96D/Y97S,n.d. / n.d. / n.d.,n.d.,1/9 (4.38)
K24T/T59H,2.12 / 1.95 / 2.21,2.09,3/9 (4.72)
S25E/A57W/Q95S,5.16 / n.d. / n.d.,5.16,4/9 (5.10)
S28D/A57V/T59S,2.74 / 5.02 / 4.66,4.14,2/9 (3.85)
K24Q/Y31E/R99I,0.24 / 0.48 / 0.54,0.42,3/9 (3.87)
Q27A/W56Q/Q96G,-0.14 / 0.26 / 0.20,0.11,2/9 (3.82)
S28D/K36H/Y97L,1.84 / 2.23 / 2.46,2.18,3/9 (4.40)
L30W/Q95W/L102V,3.72 / n.d. / n.d.,3.72,1/9 (3.73)
A57T/S103Y,0.90 / 1.01 / 0.96,0.96,1/9 (3.69)
Y31W/S33L/A57Q,2.98 / 4.04 / n.d.,3.51,1/9 (4.20)
L30C/K36C/A57V,1.60 / 1.34 / 1.29,1.41,1/9 (4.75)
S25V/S58K/E61Q,3.91 / 3.10 / 3.69,3.57,3/9 (3.75)
E32P/S33F/A57C,5.20 / 1.91 / 2.51,3.21,1/9 (3.08)
T59I/Q95N/R99E,2.74 / 3.02 / 2.50,2.76,5/9 (3.73)
Q96S/Y97Q/P101R,n.d. / n.d. / n.d.,n.d.,1/9 (3.67)

Repeated from above, the 4 best binders with a signal in all replicates:

changes,"log10 Kd, replicates",mean log10 Kd (nM),signal with controls
Q27A/W56Q/Q96G,-0.14 / 0.26 / 0.20,0.11,2/9 (3.82)
K24Q/Y31E/R99I,0.24 / 0.48 / 0.54,0.42,3/9 (3.87)
S25L/K36Q/R60H,0.54 / 0.62 / 0.47,0.54,0/9
S28N/N35M,0.73 / 0.72 / 0.96,0.80,0/9

The measurements come from Engelhart et al. 2022 (doi:10.1038/s41597-022-01779-4) through the FLAb antibody collection.